Source: PMC2137757 (The Journal of Experimental Medicine, 1964)

Test system: deoxyribonucleic acid of adrenal
Type: in vivo, rat
Settings: Table VII

Cc1ccc2cc3c(ccc4ccccc43)c3c2c1CC3 [3-MC, 3-Methylcholanthrene]
Tritium content of adrenal (3-MC 2.5 mg i.v. at -24 hrs): 0.095 ~clgm
Tritium content of adrenal, per cent of controls (3-MC 2.5 mg i.v. at -24 hrs): 72 per cent
Tritium content of adrenal, per cent of controls (3-MC 2.5 mg i.v. at -28 hrs and 7,12-DMBA 5 mg i.v. at -4 hrs): 67 per cent

Read-outs that look alike come from different tables or passages of the source.
